Results from patent EP1160247A1, “6,5-Fused aromatic ring systems having enhanced phosphodiesterae IV inhibitory activity” (Euro-Celtique S.A., priority 2000, dated 2001).

Sequences of proteins named here, by UniProt entry; tags and fusion partners are left off. A change or cut given only in a name is not applied to a line headed by its entry.
UniProt Q14432: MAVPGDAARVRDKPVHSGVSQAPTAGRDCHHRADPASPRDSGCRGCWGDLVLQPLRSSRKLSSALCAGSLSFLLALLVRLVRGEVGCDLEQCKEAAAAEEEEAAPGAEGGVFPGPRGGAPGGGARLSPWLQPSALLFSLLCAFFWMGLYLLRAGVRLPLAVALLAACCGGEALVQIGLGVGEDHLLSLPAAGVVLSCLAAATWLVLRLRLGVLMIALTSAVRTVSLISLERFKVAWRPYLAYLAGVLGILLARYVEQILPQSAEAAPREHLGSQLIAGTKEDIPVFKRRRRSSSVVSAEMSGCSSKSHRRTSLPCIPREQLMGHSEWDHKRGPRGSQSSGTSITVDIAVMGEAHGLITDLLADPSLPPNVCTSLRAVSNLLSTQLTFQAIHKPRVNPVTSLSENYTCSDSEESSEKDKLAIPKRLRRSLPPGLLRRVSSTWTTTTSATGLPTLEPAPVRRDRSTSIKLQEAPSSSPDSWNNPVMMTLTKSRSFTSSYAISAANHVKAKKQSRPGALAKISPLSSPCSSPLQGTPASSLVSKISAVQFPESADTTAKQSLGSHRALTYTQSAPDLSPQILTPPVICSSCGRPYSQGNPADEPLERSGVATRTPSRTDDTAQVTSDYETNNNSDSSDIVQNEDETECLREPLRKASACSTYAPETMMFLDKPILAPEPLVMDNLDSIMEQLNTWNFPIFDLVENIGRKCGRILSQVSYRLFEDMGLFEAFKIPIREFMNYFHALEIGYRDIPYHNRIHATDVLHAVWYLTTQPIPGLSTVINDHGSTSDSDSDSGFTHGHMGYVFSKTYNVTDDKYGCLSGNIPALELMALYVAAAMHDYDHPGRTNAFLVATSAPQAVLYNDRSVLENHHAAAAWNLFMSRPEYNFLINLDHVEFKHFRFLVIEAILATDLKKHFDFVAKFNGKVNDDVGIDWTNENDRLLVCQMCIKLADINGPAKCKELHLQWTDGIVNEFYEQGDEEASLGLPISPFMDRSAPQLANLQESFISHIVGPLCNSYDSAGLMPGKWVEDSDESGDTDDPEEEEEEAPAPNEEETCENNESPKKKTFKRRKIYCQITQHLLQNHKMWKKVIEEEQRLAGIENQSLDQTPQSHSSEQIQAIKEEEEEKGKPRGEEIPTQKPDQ

Biological target: T1, PDE III (Homo sapiens, UniProt Q14432)
T1 construct: Fractions containing PDE III activity are pooled and dialyzed; from tissue; host or cells: human platelets (100,000 x g supernatant, DEAE-Trisacryl M fraction)
Assay: Type III PDE activity, hydrolysis of [3H]-cyclic AMP
Assay type: biochemical
Procedure: The Type III PDE is isolated from human platelets using a procedure similar to that previously described by Weishaar, R.E.; Burrows, S.D.; Kobylarg, D.C., Quade, N.M.; Evans, D.B., Biochem. Pharmacol., 35:787, 1986. Briefly, 1-2 units of platelets are suspended in an equal volume of buffer (20 mM Tris-HCl, pH 7.5, containing 2 mM magnesium acetate, 1 mM dithiothreitol, and 5 mM Na2 EDTA). The protease inhibitor phenyl methyl-sulfonyl fluoride (PMSF) is also included in this buffer at a final concentration of 200 µM. The suspension is homogenized using a polytron and the homogenate centrifuged at 100,000 x g for 60 minutes. This and all subsequent procedures are performed at 0-4°C. The supernatant is then filtered through four layers of gauze and applied to a DEAE-Trisacryl M column, previously equilibrated with buffer B (20 mM Tris-HCl, pH 7.5, containing 1 mM magnesium acetate, 1 mM dithiothreitol and 200 µM PMSF). After application of the sample, the column is washed with several bed volumes of buffer B, after which the different forms of PDE are eluted from the column using two successive linear NaCl gradients (0.05-0.15 M, 300 ml total; 0.15-0.40 M, 200 ml total). […]
Enzyme activity is assessed by measuring the hydrolysis of [^3H]-cyclic AMP, as described by Thompson, W.J., Teraski, W.L., Epstein, P.N., Strada, S.J.: Adv. […]

`Cn1c(=O)c2[nH]cnc2n(C)c1=O` [Theophylline, reference compound] was tested, and the IC50 was 380 µM.
